{"source": "patent US6271266A", "about": "“Use of idebenone and analogues against β amyloid induced cytotoxicity” (Takeda Chemical Industries, Ltd., priority 1996, dated 2001)", "test": "Acute toxicity in mice", "conditions": "mouse, in vivo, both sexes", "data": [{"smiles": "COC1=C(OC)C(=O)C(CCCCCCCCCCO)=C(C)C1=O", "note": "[idebenone, 6-(10-hydroxydecyl)-2,3-dimethoxy-5-methyl-1,4-benzoquinone]", "values": [{"measurement": "LD50", "value": "≥ 10000", "unit": "mg/kg"}]}]}
